Target: CREB-binding protein (Homo sapiens, UniProt Q92793)
Experiment: Inhibition of His tagged recombinant CBP (unknown origin) by TR-FRET assay
Summary of the method: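 Recombinant His-tagged bromodomains purified by Ni affinity, tag removed with thrombin, checked by mass spectrometry. Assay is TR-FRET competition against a biotinylated small-molecule ligand. Normalized inhibition vs concentration fit to 4-parameter Hill equation; […] for optimization.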

The chains behind the UniProt entries cited, without tags or fusion partners.
UniProt Q92793, whole entry: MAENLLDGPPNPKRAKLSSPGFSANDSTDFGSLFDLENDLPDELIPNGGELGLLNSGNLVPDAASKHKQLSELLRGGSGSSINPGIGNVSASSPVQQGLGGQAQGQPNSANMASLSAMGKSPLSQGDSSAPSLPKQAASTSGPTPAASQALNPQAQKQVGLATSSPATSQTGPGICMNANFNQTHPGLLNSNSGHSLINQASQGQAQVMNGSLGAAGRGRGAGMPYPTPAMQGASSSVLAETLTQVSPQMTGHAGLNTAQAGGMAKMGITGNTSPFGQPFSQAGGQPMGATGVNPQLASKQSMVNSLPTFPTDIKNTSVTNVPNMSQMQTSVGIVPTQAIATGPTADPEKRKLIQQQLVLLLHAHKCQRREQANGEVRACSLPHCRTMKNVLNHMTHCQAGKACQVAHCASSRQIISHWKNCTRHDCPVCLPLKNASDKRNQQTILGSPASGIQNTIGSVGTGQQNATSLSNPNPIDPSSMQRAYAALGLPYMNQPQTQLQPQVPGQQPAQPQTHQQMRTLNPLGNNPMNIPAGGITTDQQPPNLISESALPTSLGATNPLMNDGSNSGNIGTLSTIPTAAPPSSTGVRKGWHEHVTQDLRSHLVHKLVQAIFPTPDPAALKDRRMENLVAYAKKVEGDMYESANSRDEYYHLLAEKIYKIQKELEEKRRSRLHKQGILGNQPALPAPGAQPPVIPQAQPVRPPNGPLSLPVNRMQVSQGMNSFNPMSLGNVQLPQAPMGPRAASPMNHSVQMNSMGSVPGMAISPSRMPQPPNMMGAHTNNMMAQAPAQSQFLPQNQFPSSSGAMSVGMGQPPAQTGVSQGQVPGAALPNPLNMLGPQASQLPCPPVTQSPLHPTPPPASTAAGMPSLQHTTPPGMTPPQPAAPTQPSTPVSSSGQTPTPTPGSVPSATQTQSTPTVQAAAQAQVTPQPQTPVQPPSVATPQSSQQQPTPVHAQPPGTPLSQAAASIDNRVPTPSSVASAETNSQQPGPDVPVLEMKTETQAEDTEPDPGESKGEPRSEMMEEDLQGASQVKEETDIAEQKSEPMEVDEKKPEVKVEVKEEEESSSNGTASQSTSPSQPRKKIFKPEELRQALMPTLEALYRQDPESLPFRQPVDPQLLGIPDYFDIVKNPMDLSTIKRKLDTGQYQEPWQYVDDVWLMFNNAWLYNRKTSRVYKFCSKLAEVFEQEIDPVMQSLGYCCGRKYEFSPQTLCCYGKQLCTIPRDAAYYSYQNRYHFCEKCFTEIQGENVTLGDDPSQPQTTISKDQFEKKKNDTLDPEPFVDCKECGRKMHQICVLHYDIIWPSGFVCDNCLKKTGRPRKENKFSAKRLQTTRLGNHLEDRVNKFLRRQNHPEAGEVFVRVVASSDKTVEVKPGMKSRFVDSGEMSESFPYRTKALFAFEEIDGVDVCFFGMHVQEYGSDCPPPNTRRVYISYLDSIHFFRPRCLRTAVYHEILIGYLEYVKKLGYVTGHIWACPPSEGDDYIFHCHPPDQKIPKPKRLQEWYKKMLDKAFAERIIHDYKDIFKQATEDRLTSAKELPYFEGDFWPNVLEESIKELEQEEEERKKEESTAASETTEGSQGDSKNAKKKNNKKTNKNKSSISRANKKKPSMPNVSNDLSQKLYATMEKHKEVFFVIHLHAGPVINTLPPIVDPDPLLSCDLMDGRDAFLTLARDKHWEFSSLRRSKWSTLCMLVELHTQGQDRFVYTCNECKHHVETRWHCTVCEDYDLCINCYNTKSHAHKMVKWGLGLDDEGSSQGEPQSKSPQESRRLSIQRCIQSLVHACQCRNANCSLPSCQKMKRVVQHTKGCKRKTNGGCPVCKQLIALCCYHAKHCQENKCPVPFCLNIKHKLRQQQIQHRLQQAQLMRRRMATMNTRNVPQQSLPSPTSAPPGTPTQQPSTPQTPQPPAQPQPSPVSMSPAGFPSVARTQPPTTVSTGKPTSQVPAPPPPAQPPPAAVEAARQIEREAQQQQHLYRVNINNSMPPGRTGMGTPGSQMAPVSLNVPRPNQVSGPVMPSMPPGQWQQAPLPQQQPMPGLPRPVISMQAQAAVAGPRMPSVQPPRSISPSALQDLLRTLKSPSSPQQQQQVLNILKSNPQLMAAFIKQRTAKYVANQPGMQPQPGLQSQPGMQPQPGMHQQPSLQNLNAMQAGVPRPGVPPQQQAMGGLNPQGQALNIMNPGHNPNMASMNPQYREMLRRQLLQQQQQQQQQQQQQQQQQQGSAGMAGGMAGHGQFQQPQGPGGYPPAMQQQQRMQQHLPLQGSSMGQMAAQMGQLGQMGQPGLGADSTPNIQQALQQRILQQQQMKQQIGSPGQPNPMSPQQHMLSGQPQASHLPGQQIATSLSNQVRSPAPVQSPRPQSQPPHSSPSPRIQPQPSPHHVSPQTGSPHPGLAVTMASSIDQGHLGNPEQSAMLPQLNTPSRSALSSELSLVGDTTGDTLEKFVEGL

IC50: 61 nM
SMILES: C[C@H]1Nc2c(cccc2N2CCCc3cc(-c4cnn(C)c4)c(C(F)F)cc32)NC1=O

Source: ChEMBL document CHEMBL4028905, “A Unique Approach to Design Potent and Selective Cyclic Adenosine Monophosphate Response Element Binding Protein, Binding Protein (CBP) Inhibitors” (J Med Chem, 2017)
